This test concerns the target RecQ-like DNA helicase BLM (Homo sapiens) (UniProt P54132). Kind of test: qHTS for Inhibitors of Bloom's syndrome helicase (BLM): Helicase DNA unwinding fluorescent orthogonal confirmatory assay for SAR. The conditions noted are these: fluorescence, orthogonal confirmation. The source says:
Human RecQ DNA helicases participate in maintenance of genome stability and DNA repair. While other types of helicases have been explored as targets for drug development, members of the RecQ family have remained less well characterized. Mutations of the Bloom helicase gene have been associated with the rare human genetic disease called Bloom syndrome. […] Moreover, identified inhibitors can be used in cells and animal models to examine the consequences of inhibition on the survival of cancer cells where it has been shown that BLM plays an important role.
A fluorescence-based, biochemical assay in 1536 well format was developed to evaluate inhibition of BLM DNA unwinding activity. This assay was used to screen the MLPCN library. The resulting compounds were subjected to orthogonal and secondary biochemical assays to triage the initial hits, to classify compounds based on mode of action and to derive structure activity relationships (SARs) of candidate effectors. The data herein is the result of the Helicase DNA unwinding fluorescent orthogonal confirmatory assay. […]
Unwinding assay for the BLM helicase was carried out in a reaction buffer containing 50 mM Tris-HCl pH 7.5, 50mM NaCl, 2mM MgCl2, 2mM ATP, 1mM DTT, and 0.1 mg/ml BSA. Optimal substrate and enzyme concentrations as well as reaction times were determined experimentally. […] Substrate and product bands were quantified using ImageJ. […]
(Quantitative high-throughput screening tests each substance at several concentrations.)

Amino acid sequences for entries named in this document (tags omitted). A change or cut given only in a name is not applied to a line headed by its entry.
UniProt P54132: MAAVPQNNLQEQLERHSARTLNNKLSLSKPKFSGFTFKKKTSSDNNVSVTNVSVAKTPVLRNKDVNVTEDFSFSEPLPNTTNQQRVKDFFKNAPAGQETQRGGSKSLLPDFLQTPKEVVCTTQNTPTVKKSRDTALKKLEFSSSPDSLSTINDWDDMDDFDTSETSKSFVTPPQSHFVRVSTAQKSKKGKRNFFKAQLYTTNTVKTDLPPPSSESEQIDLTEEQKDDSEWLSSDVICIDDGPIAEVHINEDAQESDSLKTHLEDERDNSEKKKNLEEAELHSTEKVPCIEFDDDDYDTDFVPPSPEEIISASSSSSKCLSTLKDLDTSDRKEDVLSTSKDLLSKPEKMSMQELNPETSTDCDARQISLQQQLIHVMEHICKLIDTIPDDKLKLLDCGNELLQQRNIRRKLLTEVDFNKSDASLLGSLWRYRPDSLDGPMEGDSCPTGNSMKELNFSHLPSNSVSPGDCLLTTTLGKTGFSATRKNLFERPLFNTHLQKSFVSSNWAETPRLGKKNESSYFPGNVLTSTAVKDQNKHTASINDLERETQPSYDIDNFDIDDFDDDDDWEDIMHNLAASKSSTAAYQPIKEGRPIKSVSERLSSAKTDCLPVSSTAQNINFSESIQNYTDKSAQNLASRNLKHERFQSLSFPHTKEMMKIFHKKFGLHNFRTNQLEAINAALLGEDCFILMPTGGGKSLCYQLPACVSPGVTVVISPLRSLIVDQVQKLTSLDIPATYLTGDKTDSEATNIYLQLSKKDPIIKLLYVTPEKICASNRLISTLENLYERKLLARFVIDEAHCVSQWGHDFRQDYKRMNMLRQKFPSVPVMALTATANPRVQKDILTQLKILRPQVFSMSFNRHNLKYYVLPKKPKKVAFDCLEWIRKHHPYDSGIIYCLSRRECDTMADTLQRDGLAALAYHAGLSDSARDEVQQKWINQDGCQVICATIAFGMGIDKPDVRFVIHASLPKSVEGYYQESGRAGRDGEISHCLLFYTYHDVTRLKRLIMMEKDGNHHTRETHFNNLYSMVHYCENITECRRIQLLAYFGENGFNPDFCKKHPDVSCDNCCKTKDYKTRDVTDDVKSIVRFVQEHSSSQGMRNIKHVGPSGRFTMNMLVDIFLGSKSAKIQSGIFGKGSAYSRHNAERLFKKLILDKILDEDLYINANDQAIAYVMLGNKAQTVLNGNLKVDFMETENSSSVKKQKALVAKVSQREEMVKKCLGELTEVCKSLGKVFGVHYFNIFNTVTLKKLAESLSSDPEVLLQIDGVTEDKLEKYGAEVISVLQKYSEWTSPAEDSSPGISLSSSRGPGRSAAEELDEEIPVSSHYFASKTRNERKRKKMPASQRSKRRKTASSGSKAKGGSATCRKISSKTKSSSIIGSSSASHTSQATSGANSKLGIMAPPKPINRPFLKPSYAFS

Here are results for one compound from PubChem BioAssay AID720555 (National Center for Advancing Translational Sciences (NCATS), 2013).

Each structure is given as a SMILES string. Where “and” joins values, the source holds several entries; their conditions need not be identical. Identical values can stand only once. This is a selection; strong and weak results do not stand in their true shares. Results filed as inconclusive are left out. Calls of active or inactive are those of the source. Calls follow the shape of the dose curve; as a rule, active = well fitted inhibition curve with a large enough effect; inconclusive = small, poorly fitted or top-dose-only effect; inactive = no such curve, though single readings can be large or run the other way.

On to `O=C(Nc1ccc(F)c(C(F)(F)F)c1)Nc1nnc(-c2ccncc2)s1`, for which the Potency was active: 2.82 µM and active: 2 µM.
